Binding of CDR-mutated scFvs to a peptide of the spike HR2 region

Data: MIT Lincoln Laboratory AlphaSeq set, Engelhart et al. 2022, doi:10.1038/s41597-022-01779-4, as distributed in FLAb.

All variants were tested on one target, the spike HR2 peptide PDVDLGDISGINAS (SARS-CoV-2).

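The starting antibody came from a phage panning campaign against this peptide. The library (AAYL49) carries one to three amino acid substitutions per variant, with no insertions or deletions. Affinity was read by AlphaSeq, a pooled yeast mating assay with surface-displayed partners. Pairs that bind mate more often; barcode pairs of the diploids are counted by sequencing. Scores were corrected for input abundance and mapped to Kd with protein pairs of known affinity run in the same pool. The assay was run in three technical replicates.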

Ab-14 is the parent antibody, in scFv form: VH, then three GGGGS repeats, then VL. The light chain is unchanged in all variants.
VH: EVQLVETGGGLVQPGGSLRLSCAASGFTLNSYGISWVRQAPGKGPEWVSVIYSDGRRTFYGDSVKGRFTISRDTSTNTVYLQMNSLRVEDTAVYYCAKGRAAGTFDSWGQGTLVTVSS
VL: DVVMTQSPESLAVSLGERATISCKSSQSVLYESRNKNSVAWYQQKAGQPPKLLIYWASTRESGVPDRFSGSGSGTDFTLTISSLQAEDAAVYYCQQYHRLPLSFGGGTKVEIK

Sequences are complete VH domains.
Every variant below is changed at A102 of the VH (sequential numbering).
Numbers give log10(Kd / nM), so 0 is 1 nM and 3 is 1 µM. Smaller is tighter.
The mean shown is taken over the replicates in which the pair was detected.
"nd" means that the variant was in the library but no mating with the target was seen in any replicate; the authors take this as a sign of poor binding, and no number exists.
In this assay the parent's reference entry averaged 0.65; its copy inside this library read 4.11 (one replicate of three).
Nonspecific signal, from three strains lacking the peptide, appeared in 15% of pairings of library AAYL49, centred on 4.06 (5% of these signals below 2.83); values are not corrected for it. For each scFv, signals with the empty controls are counted beside the result.

Variant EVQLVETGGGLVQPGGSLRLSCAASGFTLNSYGISWVRQAPGKGPEWVSVQYSDGRRTFYCDSVKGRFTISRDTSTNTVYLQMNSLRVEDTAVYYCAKGRALGTFDSWGQGTLVTVSS gave 5.34 (1 of 3 replicates; controls 2 of 9).
Variant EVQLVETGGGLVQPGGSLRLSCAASGFTLNSYKISWVRQAPGKGPEWVSVHYSDGRRTFYGDSVKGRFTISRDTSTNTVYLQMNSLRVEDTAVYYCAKGRANGTFDSWGQGTLVTVSS gave nd (0 of 3 replicates; controls 0 of 9).
Variant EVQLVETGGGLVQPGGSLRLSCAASGFTLNSYGIRWVRQAPGKGPEWVSVIYSDGRCTFYGDSVKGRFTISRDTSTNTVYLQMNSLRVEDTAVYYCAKGRAVGTFDSWGQGTLVTVSS gave nd (0 of 3 replicates; controls 1 of 9).
Variant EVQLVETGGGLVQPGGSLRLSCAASGFTLNSYGISWVRQAPGKGPEWVSVIYSDGRRTFLGFSVKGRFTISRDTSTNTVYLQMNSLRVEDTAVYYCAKGRAFGTFDSWGQGTLVTVSS gave nd (0 of 3 replicates; controls 0 of 9).
Variant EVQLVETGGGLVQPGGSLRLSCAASGFTLNSYGISWVRQAPGKGPEWVSVIYSDGRRTFYGDSHKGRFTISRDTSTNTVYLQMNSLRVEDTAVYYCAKGRAGGTFDSWGQGTLVTVSS gave nd (0 of 3 replicates; controls 0 of 9).
Variant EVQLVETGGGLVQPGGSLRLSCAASGFTLNSYIISWVRQAPGKGPEWVSVIYSDGRRTFYGDSVKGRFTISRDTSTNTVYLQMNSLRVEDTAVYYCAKGRAVGTFDSWGQGTLVTVSS gave nd (0 of 3 replicates; controls 0 of 9).
Variant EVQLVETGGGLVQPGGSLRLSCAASGFTLNSYNISWVRQAPGKGPEWVSVIYSDGRRTFYGDSVKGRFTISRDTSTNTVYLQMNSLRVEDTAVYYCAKGRAHGWFDSWGQGTLVTVSS gave nd (0 of 3 replicates; controls 2 of 9).
Variant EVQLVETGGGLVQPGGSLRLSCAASGFTCNEYGISWVRQAPGKGPEWVSVIYSDGRRTFYGDSVKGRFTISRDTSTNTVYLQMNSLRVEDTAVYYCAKGRAQGTFDSWGQGTLVTVSS gave nd (0 of 3 replicates; controls 0 of 9).
Variant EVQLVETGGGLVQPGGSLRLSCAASGFTLNSYGISWVRQAPGKGPEWVSVIESDGRRTFYGDSAKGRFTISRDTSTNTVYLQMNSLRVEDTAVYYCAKGRADGTFDSWGQGTLVTVSS gave 4.55 (1 of 3 replicates; controls 0 of 9).
Variant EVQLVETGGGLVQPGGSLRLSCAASGFTLNSGGISWVRQAPGKGPEWVSVIYSDGRRTFYGDSVKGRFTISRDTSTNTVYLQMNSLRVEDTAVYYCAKGRAYGTFNSWGQGTLVTVSS gave nd (0 of 3 replicates; controls 2 of 9).
Variant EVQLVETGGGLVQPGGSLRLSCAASGFTKNSYGISWVRQAPGKGPEWVSVIYSDGRRTFNGDSVKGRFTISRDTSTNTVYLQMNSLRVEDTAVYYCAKGRAFGTFDSWGQGTLVTVSS gave 3.56 (2 of 3 replicates; controls 2 of 9).
Variant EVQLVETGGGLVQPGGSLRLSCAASGFTMNSYFISWVRQAPGKGPEWVSVIYSDGRRTFYGDSVKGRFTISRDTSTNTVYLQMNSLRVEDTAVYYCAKGRATGTFDSWGQGTLVTVSS gave 4.61 (2 of 3 replicates; controls 2 of 9).
Variant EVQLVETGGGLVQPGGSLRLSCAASGFTLNSYGISWVRQAPGKGPEWVSVIYSDGRRTFYGDSVKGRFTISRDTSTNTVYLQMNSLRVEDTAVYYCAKNRAPGTFASWGQGTLVTVSS gave 3.25 (1 of 3 replicates; controls 2 of 9).
Variant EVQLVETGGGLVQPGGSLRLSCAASGFTLNSYGYSWVRQAPGKGPEWVSVIYSDGRITFYGDSVKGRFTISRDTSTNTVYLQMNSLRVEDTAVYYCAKGRASGTFDSWGQGTLVTVSS gave 4.82 (3 of 3 replicates; controls 4 of 9).
Variant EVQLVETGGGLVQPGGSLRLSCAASGFTLNSYGISWVRQAPGKGPEWVSVQYSDGRRTFYEDSVKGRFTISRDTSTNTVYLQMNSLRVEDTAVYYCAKGRAPGTFDSWGQGTLVTVSS gave nd (0 of 3 replicates; controls 0 of 9).
Variant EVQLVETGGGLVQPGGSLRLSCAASGFTVNSYGISWVRQAPGKGPEWVSVIYSDGRRTFYGDSVKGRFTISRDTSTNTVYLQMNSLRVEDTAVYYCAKGRAQGTNDSWGQGTLVTVSS gave 3.09 (3 of 3 replicates; controls 3 of 9).
Variant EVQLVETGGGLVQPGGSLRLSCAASGFTLNSYGYSWVRQAPGKGPEWVSVIYSDGRRTFYGDSVKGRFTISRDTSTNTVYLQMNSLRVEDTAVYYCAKVRAFGTFDSWGQGTLVTVSS gave 3.67 (1 of 3 replicates; controls 3 of 9).
Variant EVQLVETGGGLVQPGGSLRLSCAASGFTLNSYGISWVRQAPGKGPEWVSVIYSEGRRTFYGDSVKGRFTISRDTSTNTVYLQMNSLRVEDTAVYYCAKGRASGDFDSWGQGTLVTVSS gave 3.37 (1 of 3 replicates; controls 2 of 9).
Variant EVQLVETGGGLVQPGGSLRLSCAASGFTLNSYGIRWVRQAPGKGPEWVSVIYSDGRRTFYGDSVKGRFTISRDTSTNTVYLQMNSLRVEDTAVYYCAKGRAVGTFQSWGQGTLVTVSS gave nd (0 of 3 replicates; controls 0 of 9).

The closing 2 entries, repeated:

| VH | mean log10 Kd (nM) | replicates with signal | empty controls |
|---|---|---|---|
| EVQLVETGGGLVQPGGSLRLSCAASGFTLNSYGISWVRQAPGKGPEWVSVIYSEGRRTFYGDSVKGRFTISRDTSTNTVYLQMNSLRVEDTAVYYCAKGRASGDFDSWGQGTLVTVSS | 3.37 | 1 of 3 | 2 of 9 |
| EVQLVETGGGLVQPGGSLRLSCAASGFTLNSYGIRWVRQAPGKGPEWVSVIYSDGRRTFYGDSVKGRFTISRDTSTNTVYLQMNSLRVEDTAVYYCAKGRAVGTFQSWGQGTLVTVSS | nd | 0 of 3 | 0 of 9 |